Measurements published in patent US11844794B2, “Pharmaceutical compositions” (ADEPTIO PHARMACEUTICALS LIMITED, priority 2017, dated 2023).

Amino acid sequences for entries named in this document (tags omitted).
UniProt Q05940, whole entry: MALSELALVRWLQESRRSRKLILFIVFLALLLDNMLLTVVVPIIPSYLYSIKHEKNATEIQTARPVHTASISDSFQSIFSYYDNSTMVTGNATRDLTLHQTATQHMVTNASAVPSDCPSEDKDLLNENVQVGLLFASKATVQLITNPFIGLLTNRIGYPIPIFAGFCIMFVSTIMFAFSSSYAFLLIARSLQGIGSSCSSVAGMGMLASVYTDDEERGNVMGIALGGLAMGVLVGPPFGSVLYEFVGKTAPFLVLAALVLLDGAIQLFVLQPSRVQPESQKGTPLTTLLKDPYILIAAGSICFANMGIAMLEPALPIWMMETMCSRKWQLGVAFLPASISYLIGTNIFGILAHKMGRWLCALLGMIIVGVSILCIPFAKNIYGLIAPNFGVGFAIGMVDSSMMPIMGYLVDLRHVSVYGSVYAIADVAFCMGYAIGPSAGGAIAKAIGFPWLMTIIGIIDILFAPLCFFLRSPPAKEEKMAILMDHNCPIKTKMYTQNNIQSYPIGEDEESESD

Molecular target: T1, VMAT2 (Homo sapiens, UniProt Q05940)
T1 construct: from tissue; host or cells: living human volunteers (in vivo PET scan)
Experiment: % VMAT2 blocking by PET scan in human volunteers
Type: in vivo
Details: average plasma levels of less than 15 ng/ml during the period of PET scanning
From the text: Complete blocking of the VMAT2 proteins is considered undesirable as this can lead to unwanted side effects, such as Parkinsonism. […] The levels of VMAT2 blocking can be determined by competitive binding studies using Positron Emission Tomography (PET). By co-administering a radioactive ligand with the compound of interest at various concentrations, the proportion of binding sites occupied can be determined (see for example, Matthews et al., “Positron emission tomography molecular imaging for drug development”, Br. J. Clin. Pharmacol., 73:2, 175-186).
(+)-α-Dihydrotetrabenazine in amounts was administered by oral dosing to five human volunteers. In four of the volunteers, blood sample were taken at 30, 60, 120 and 180 minutes after drug administration. Blood samples were not taken from the fifth volunteer. At 60 minutes after drug administration, PET scans were initiated and these were stopped at 120 minutes after drug administration.
The experiment was carried out at dosages of 7.5 mg, 15 mg and 22.5 mg.

SMILES: COc1cc2c(cc1OC)[C@H]1C[C@@H](O)[C@H](CC(C)C)CN1CC2 [(+)-α-dihydrotetrabenazine, (2R,3R,11bR)-3-isobutyl-9,10-dimethoxy-1,3,4,6,7,11b-hexahydro-2H-pyrido[2,1,a]isoquinolin-2-01]
- % VMAT2 binding: at least 50%
